Compound activity (PubChem BioAssay)
TRPML1 agonist = human mucolipin-1 channel agonism. Q9GZU1. TRPML1-expressing cells, Ca2+ dye fluorescence, FDSS. activation, % (test concentration not listed). hit rate 0.12% among 410,000. AID 624414; in the data active = activation above about 50%; inconclusive = mostly about 30% to 49%; also: 0% is about no effect
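Cells: TRPML1-DL, 1X Tet inducer, ~16 h at 37 degrees C/5% CO2. Dye: ABD Ca8 no-wash + quencher, 45-90 min RT. Read: 10 s baseline, compound add, 110 s agonist phase; 54-4 EC80 (4uM final), 110 s antagonist phase.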
uPA generation = cell surface uPA generation inhibition. cell surface uPA generation assay, qHTS. Potency, µM (top dose mostly 38.3 µM), for the others: at the top dose activity change, negative = inhibition, usual class: inhibitors. hit rate 0.31% among 330,000; active = well fitted inhibition curve with a large enough effect; inconclusive = small, poorly fitted or top-dose-only effect; inactive = no such curve, though single readings can be large or run the other way; tested in mouse RAW 264.7 cells; also: potency is read from the fitted curve at half-maximal effect; % is scaled to controls: 0 for no effect and ±100 for the full control effect; nearly all actives have a fitted effect of over 55% in size
TRPML1 blocker = human mucolipin-1 channel inhibition; AID 624415; hit rate 0.02% among 390,000; TRPML1-inducible cells, Ca2+ dye fluorescence, FDSS; hits give low values; inhibition of EC80 agonist-evoked calcium signal; activity change, negative = inhibition, % (concentration not given with the values); in the data active = activity change below about -50%; inconclusive = between about -30% and that limit;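 also: stimulus is agonist 54-4 at its EC80 concentration; % is scaled to controls: 0 for no effect and ±100 for the full control effect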
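TRPML1-DL cells, Tet-induced overnight (~16 h, 37 °C) at 1,500 cells/well, were loaded with Ca8 no-wash dye plus quencher for 45-90 min at room temperature. Compounds were pinned during FDSS kinetic reading; agonist 54-4 at EC80 (4 uM final) then added.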
miR-21 reporter = raises the signal of a miR-21 reporter; AID 2288; 340,000 tested, under 10 active; Potency, µM (doses to about 38.3 µM), inactives show at the top dose reporter change, positive = more light; HeLa miR-21 FLuc reporter, luciferase, 48 h; active = well fitted rising curve with a large enough effect; inconclusive = small, poorly fitted or top-dose-only effect; inactive = no such curve, though single readings can be large or run the other way;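 note: % of control where 0% means no effect; miR-21 action dims this reporter so a rising signal means less miR-21 action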
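Compounds were titrated across several concentrations (up to approximately 40 uM) and incubated 48 hours with HeLa miR-21-FLuc reporter cells (miR-21 target sequence downstream of FLuc, endogenous miR-21). Readout was firefly luciferase luminescence after lytic detection reagent.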
An asterisk follows results filed as active; ? = inconclusive; . = not tested or not shown. The list is not random: actives were taken first. Their share in the collection is about 0.34%.

Below each compound – TRPML1 blocker | miR-21 reporter | uPA generation | TRPML1 agonist
- COC(=O)N1C(=O)[C@@](c2ccccc2)(C2CCCC2)N1C(=O)OC
 : -2 | 7% | 7.1µM* | 0
- Cc1c(C(=O)N/N=C/c2ccc(Cl)cc2)[nH]c2ccc(Cl)cc12
 : 6 | 21% | 0.35µM* | 1
- CCCCCCn1c(=O)[nH]c2nc3cc(N)ccc3nc2c1=O
 : -10 | -16% | -13% | 51*
- Cc1c([N+](=O)[O-])cnc2ccccc12
 : . | . | . | -1
- CC(C)(C)c1ccc(CN(Cc2ccccc2)C(c2ccccn2)c2nnnn2C(C)(C)C)cc1 (centres undefined)
 : 3 | 1% | 10% | 56*
- Cc1oc(-c2ccc(Cl)cc2)nc1CN1CCC(C(=O)NCCCN2CCOCC2)CC1
 : 59 | -21% | . | 0
- CCC1CCCCN1CCCNC(=O)C1CCN(Cc2nc(-c3ccc(Cl)cc3)oc2C)CC1 (centres undefined)
 : -15 | 25% | 10µM* | 1
- CC(C)(C)n1ncc2c(=O)n(Cc3cccc(-c4ccccc4)c3)cnc21
 : 39 | . | . | 4
- C=C[C@@H]1c2cc(C)ccc2N(S(=O)(=O)c2ccc(C)cc2)[C@H](c2ccc(C(C)(F)F)cc2)C1(C#N)C#N
 : . | . | . | 51*
- C=C[C@@H]1c2ccccc2N(S(=O)(=O)c2ccc(C)cc2)[C@H](c2ccc(C(F)(F)F)cc2)C1(C#N)C#N
 : -11 | . | 28% | 25
- Cn1c(=O)n(-c2ccc(C(C)(C)C#N)cc2)c2c3cc(-c4cnc5ccccc5c4)ccc3ncc21
 : . | . | . | -1
- N#CC1(c2ccc(NC(=O)c3ccccc3)cc2)CCCC1
 : . | -43% | . | .
- CC(=O)Oc1ccc(C(=O)Nc2ccc(C3(C#N)CCCC3)cc2)cc1
 : -14 | -37% | 10µM* | 0
- COc1cccc(N2CCN(c3ncnc4c3c(-c3ccccc3)cn4-c3cccc(C(F)(F)F)c3)CC2)c1
 : -18 | -4% | . | 53*
- O=C(CSc1nnc2n(C3CCCC3)c(=O)c3ccccc3n12)N1CCCCCC1
 : 37 | 15% | . | 2
- COc1ccccc1Cn1c(=O)c2ccccc2n2c(SCC(=O)N3CCCCC3)nnc12
 : -61* | -4% | 2% | 2
- COc1cc2cncnc2cc1OCCCCC(N)=O
 : . | . | . | 0
- CCOc1ccccc1C1CC(=O)Nc2cc(C)c(C)cc21 (centres undefined)
 : . | 13% | 7.1µM* | .
- Cc1cc(Br)ccc1NC(=O)COC(=O)c1ccccc1OCC(=O)N(C)C
 : . | . | . | -1
- COc1ccc(Cl)c(Cn2cnc3c(cnn3C(C)(C)C)c2=O)c1
 : -17 | . | . | 2

Of the compounds above, these contain an aryl thioether with sulfur outside any ring.
Below each compound – TRPML1 blocker | miR-21 reporter | uPA generation | TRPML1 agonist
- O=C(CSc1nnc2n(C3CCCC3)c(=O)c3ccccc3n12)N1CCCCCC1
 : 37 | 15% | . | 2
- COc1ccccc1Cn1c(=O)c2ccccc2n2c(SCC(=O)N3CCCCC3)nnc12
 : -61* | -4% | 2% | 2

Records above marked active in TRPML1 agonist.
Below each compound – TRPML1 blocker | miR-21 reporter | uPA generation | TRPML1 agonist
- CCCCCCn1c(=O)[nH]c2nc3cc(N)ccc3nc2c1=O
 : -10 | -16% | -13% | 51*
- CC(C)(C)c1ccc(CN(Cc2ccccc2)C(c2ccccn2)c2nnnn2C(C)(C)C)cc1 (centres undefined)
 : 3 | 1% | 10% | 56*
- C=C[C@@H]1c2cc(C)ccc2N(S(=O)(=O)c2ccc(C)cc2)[C@H](c2ccc(C(C)(F)F)cc2)C1(C#N)C#N
 : . | . | . | 51*
- COc1cccc(N2CCN(c3ncnc4c3c(-c3ccccc3)cn4-c3cccc(C(F)(F)F)c3)CC2)c1
 : -18 | -4% | . | 53*

(listing goes on)
Below each compound – TRPML1 blocker | miR-21 reporter | uPA generation | TRPML1 agonist
- Cc1ccc(-n2nc3c(=O)n(CC(=O)NCCCc4ccccc4)nc(C)c3c2C)cc1
 : -13 | 1% | 0.5µM* | 1
- COc1ccc(C#Cc2ccc3c(=O)c4ccccc4n(C)c3c2)cc1
 : -4 | -10% | 14% | 1
- Cn1c2ccccc2c(=O)c2cc(C#CC3=CCCCC3)ccc21
 : 11 | . | 6.3µM* | 0
- Cn1c2ccccc2c(=O)c2ccc(C#Cc3ccc(N)cc3)cc21
 : 4 | -29% | 6.3µM* | 0
- CC(C)(C)n1ncc2c(=O)n(Cc3c(Cl)cccc3Cl)cnc21
 : -3 | . | . | 2
- CCN(CCC#N)c1ccc(/C=C/c2ccnc3ccccc23)cc1
 : . | . | . | 17
- OC(C[n+]1c(Cl)ccc2ccccc21)c1ccccc1 (centres undefined)
 : . | . | . | -1
- O=C(N/N=C/c1cc(Cl)cc(Cl)c1O)c1ccncc1
 : -8 | 28% | 3.2µM* | 18
- CC#CC#Cc1cccc(=O)o1
 : -14 | ? | 5µM* | 3
- COc1ccc(CCNC(=O)c2cc(S(=O)(=O)N(C)C)ccc2N2CCCC2)cc1
 : 2 | 0% | -23% | 14
- CN(C)S(=O)(=O)c1ccc(N2CCCC2)c(C(=O)NCc2ccc(Cl)cc2)c1
 : -1 | 14% | 2% | 75*
- COc1cccc(C(=O)Oc2ccccc2/C=C\C(=O)c2cc3ccccc3o2)c1
 : -4 | -39% | 8.9µM* | 0
- COc1ccc(N2CCN(C(=O)C(Cc3ccccc3)NC(=O)c3ccccc3)CC2)cc1 (centres undefined)
 : -4 | . | 2% | 0
- C=C1C=C(C)n2ncc(C(=O)Nc3cccc4cnccc34)c2N1
 : . | . | . | 0
- CC(=O)c1cc(F)ccc1OCC(=O)Nc1ccc2c(c1)OCO2
 : -8 | . | -5% | 2
- NC(=O)c1cc(Cl)ccc1OCC(=O)Nc1ccc2c(c1)OCO2
 : -12 | . | 6.3µM* | 0
- C=CS(=O)(=O)N(Cc1ccc(Cl)c(Cl)c1)C[C@@H](O)CO
 : -1 | . | 3.5µM* | 0
- COc1ccc(C(=O)Nc2ncnc3nc[nH]c23)cc1
 : . | . | . | -1
- Cc1cccc(NC(=O)c2cnc3sccn3c2=O)c1
 : -11 | -59% | 10µM* | 0
- CCC(O)CNC(=O)NC(=C(Cl)Cl)c1ccc(C)c(F)c1 (centres undefined)
 : 7 | 16% | 10µM* | 1
- COc1ccc(S(=O)(=O)Cc2ccc(C(=O)N3CCN(c4cccc(C)c4)C(C)C3)o2)cc1 (centres undefined)
 : -6 | 30% | 5.6µM* | 0
- Cc1ccc(S(=O)(=O)Cc2ccc(C(=O)N3CCN(c4cccc(C)c4C)CC3)o2)cc1
 : 6 | ? | 0.89µM* | 1
- CCOc1ccc(N(CC(=O)Nc2ccc(C)cc2)S(=O)(=O)c2c(C)noc2C)cc1
 : 15 | 15% | ? | 0
- CCOc1ccc(N(CC(=O)Nc2ccccc2OCC)S(=O)(=O)c2c(C)noc2C)cc1
 : -2 | 23% | 1.3µM* | 1
- COc1cc(OC)c(/C=C2\C(=O)Nc3ccccc32)c(OC)c1
 : 27 | . | 7.9µM* | 1
- COc1ccc(C(=O)/C=C2/C(=O)Nc3ccccc32)c(OC)c1
 : 18 | ? | -19% | 3
- COc1cccc2sc(Nc3nnc(-c4ccc(F)cc4)o3)nc12
 : 7 | 5% | 5.6µM* | -1
- O=C(Nc1ccccc1)O/N=C/c1ccc(F)cc1
 : 6 | -48% | 7.1µM* | 2
- CCN(CC)c1ccccc1/C=C/[n+]1ccc(CCCCI)c2ccccc21
 : . | . | . | 1
- O=[N+]([O-])c1ccc(S(=O)(=O)Nc2nc3ccccc3nc2Nc2ccccc2)cc1
 : 0 | -6% | 4% | 52*
- O=C(O)c1ccc(Nc2nc3ccccc3nc2NS(=O)(=O)c2ccc(F)cc2)cc1
 : -19 | -2% | -4% | -1
- COc1cc(Nc2nc3ccccc3nc2NS(=O)(=O)c2ccc([N+](=O)[O-])cc2)cc(OC)c1OC
 : ? | 8% | 3% | 119*
- O=c1c(Cl)c(Cl)cnn1-c1ccccc1
 : 12 | ? | 3.5µM* | 2
- COc1ccc(-c2cc(C(=O)c3c(N)n(C)c(=O)n(C)c3=O)c3ccccc3n2)cc1
 : 0 | -32% | 1.4µM* | 0
- COc1cc2c(NC3CCN(C(C)C)CC3)nc(N3CCCN(C)CC3)nc2cc1OCCCN1CCCC1
 : . | . | . | 0
- O=C(/C=C/c1ccccc1)CC(=O)c1ccccc1O
 : 33 | -33% | 8.9µM* | 4
- COc1cc2nc(NC3CCN(C)CC3)nc(NC3CCN(C)CC3)c2cc1OC
 : . | . | . | -1
- CCOC(=O)/C=C/C(=O)OCC(=O)N1CCN(C(=O)c2ccco2)CC1
 : -17 | 2% | 7.9µM* | 0
